Assay results reported in patent EP4847505A1, “4-METHYLSULFONYL-SUBSTITUTED PIPERIDINE UREA COMPOUNDS” (dated 2026).

Sequences of proteins named here, by UniProt entry; tags and fusion partners are left off.
UniProt Q9BE39, whole entry: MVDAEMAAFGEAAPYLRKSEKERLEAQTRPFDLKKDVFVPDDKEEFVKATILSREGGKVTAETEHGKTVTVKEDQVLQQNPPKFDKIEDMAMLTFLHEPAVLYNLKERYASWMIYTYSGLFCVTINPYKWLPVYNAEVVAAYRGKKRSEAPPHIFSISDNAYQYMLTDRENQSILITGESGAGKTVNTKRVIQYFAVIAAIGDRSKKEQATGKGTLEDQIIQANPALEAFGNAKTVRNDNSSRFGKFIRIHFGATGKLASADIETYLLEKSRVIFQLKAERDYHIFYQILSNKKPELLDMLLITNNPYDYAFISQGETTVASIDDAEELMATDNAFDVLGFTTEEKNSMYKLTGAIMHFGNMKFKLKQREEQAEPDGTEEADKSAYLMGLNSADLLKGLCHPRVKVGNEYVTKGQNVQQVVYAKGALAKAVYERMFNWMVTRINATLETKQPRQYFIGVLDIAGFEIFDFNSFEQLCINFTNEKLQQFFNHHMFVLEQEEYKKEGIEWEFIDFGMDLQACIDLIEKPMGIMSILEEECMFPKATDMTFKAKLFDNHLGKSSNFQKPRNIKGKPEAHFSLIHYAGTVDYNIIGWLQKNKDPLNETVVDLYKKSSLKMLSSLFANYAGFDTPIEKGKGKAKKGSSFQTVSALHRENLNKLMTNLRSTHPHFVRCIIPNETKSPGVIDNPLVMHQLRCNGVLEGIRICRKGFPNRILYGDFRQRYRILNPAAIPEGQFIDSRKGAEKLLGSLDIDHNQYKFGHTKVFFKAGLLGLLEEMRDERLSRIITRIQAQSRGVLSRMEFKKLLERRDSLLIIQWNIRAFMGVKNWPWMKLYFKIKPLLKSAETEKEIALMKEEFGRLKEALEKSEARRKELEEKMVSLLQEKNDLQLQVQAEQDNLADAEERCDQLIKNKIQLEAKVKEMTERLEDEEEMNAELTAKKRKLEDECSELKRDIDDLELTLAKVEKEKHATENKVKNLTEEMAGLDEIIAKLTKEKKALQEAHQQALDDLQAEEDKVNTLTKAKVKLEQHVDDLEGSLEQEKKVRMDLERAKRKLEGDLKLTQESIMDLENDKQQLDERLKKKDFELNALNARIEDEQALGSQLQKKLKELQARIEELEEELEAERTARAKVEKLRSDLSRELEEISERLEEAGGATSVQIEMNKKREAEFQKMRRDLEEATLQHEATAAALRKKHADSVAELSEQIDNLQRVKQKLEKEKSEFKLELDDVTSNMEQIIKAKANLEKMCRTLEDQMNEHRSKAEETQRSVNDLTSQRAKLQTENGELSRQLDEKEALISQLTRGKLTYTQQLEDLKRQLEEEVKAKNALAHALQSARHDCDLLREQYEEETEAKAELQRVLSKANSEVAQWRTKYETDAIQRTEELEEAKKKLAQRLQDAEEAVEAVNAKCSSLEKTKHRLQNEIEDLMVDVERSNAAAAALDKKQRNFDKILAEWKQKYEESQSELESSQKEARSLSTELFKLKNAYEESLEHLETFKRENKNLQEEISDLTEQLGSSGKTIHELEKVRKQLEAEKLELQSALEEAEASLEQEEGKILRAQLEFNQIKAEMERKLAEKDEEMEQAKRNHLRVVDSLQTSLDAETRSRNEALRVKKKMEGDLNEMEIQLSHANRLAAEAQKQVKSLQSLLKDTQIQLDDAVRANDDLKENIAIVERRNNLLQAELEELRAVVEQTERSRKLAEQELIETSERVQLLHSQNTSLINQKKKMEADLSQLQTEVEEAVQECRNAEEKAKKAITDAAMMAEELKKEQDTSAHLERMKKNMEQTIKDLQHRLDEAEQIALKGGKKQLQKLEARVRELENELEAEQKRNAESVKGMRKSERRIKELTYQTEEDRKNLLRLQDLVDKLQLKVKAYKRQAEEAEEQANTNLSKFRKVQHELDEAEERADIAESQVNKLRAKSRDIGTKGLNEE
UniProt P85100, whole entry partner: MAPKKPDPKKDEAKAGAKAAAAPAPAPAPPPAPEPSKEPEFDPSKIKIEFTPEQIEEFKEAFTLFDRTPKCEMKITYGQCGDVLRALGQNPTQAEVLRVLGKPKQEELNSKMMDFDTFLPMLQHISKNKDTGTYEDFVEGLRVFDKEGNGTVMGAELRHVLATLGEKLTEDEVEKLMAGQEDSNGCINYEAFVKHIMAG
UniProt Q3SZE5, whole entry partner: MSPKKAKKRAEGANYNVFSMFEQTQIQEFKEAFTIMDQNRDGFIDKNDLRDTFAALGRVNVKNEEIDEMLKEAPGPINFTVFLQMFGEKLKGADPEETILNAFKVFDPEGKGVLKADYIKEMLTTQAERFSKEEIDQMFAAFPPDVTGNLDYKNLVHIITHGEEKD

Each compound was assayed against bovine cardiac myosin (Bos taurus, UniProt Q9BE39) (assay: Myosin activation assay (PK/LDH-coupled ATPase, bovine cardiac myofibrils)). Settings: concentration at which the total response is increased by twenty percent.
With `O=C(Nc1ccnnc1)N1CCC(C2(S(=O)(=O)c3cccc(F)c3)CC(F)(F)C2)CC1` the “Myosin Activation (AC20)” value was “++ (++ represents myosin activation value AC20 from 2 µM - 5 µM)”. With `Cn1nc(C(C)(C)C)cc1S(=O)(=O)C(F)(F)C1CCN(C(=O)Nc2ccnnc2)CC1` the “Myosin Activation (AC20)” value was “+ (+ represents myosin activation value AC20 > 5 µM)”. For `[2H]C([2H])([2H])n1cc(S(=O)(=O)[C@](F)(C2CCN(C(=O)Nc3ccon3)CC2)C([2H])([2H])[2H])c(C(F)F)n1`, the “Myosin Activation (AC20)” value was “+ (+ represents myosin activation value AC20 > 5 µM)”. `COc1ccccc1S(=O)(=O)C(C)(F)C1CCN(C(=O)Nc2ccnnc2)CC1` (stereo not drawn) was tested, and the “Myosin Activation (AC20)” value was “++ (++ represents myosin activation value AC20 from 2 µM - 5 µM)”. For `CC(C)(C1CCN(C(=O)Nc2ccc(Cl)nc2)CC1)S(=O)(=O)c1cccc(F)c1`, the “Myosin Activation (AC20)” value was “++ (++ represents myosin activation value AC20 from 2 µM - 5 µM)”. For `Cn1cc(S(=O)(=O)C(F)(F)C2CCN(C(=O)Nc3ccnnc3)CC2)c(C(F)F)n1`, the “Myosin Activation (AC20)” value was “++ (++ represents myosin activation value AC20 from 2 µM - 5 µM)”. `Cn1nc(C(F)(F)F)cc1S(=O)(=O)C(C)(C)C1CCN(C(=O)Nc2ccnc(F)c2)CC1` was tested, and the “Myosin Activation (AC20)” value was “++ (++ represents myosin activation value AC20 from 2 µM - 5 µM)”. `C[C@](F)(C1CCN(C(=O)Nc2ccc(CO)nc2)CC1)S(=O)(=O)c1cccc(F)c1` was tested, and the “Myosin Activation (AC20)” value was “+ (+ represents myosin activation value AC20 > 5 µM)”. In the case of `Cn1cc(S(=O)(=O)C(C)(F)C2CCN(C(=O)Nc3ccon3)CC2)c(Cl)n1` (stereo not drawn), the “Myosin Activation (AC20)” value is reported as “+ (+ represents myosin activation value AC20 > 5 µM)”. In the case of `C[C@@](F)(C1CCN(C(=O)Nc2ccon2)CC1)S(=O)(=O)c1ccc(C(F)(F)F)nc1`, the “Myosin Activation (AC20)” value is reported as “+ (+ represents myosin activation value AC20 > 5 µM)”. In the case of `Cn1cc(S(=O)(=O)[C@@](C)(F)C2CCN(C(=O)Nc3ccnc(C#N)c3)CC2)c(C(F)F)n1`, the “Myosin Activation (AC20)” value is reported as “++ (++ represents myosin activation value AC20 from 2 µM - 5 µM)”. In the case of `O=C(Nc1ccnnc1)N1CCC(C(F)(F)S(=O)(=O)c2ccc(O)cc2Cl)CC1`, the “Myosin Activation (AC20)” value is reported as “++ (++ represents myosin activation value AC20 from 2 µM - 5 µM)”. With `Cc1ccc(NC(=O)N2CCC(C(C)(F)S(=O)(=O)c3cc(C(F)F)nn3C)CC2)cn1` (stereo not drawn) the “Myosin Activation (AC20)” value was “++ (++ represents myosin activation value AC20 from 2 µM - 5 µM)”. With `Cn1nc(C(F)(F)F)cc1S(=O)(=O)C(C)(F)C1CCN(C(=O)Nc2ccc(F)nc2)CC1` (stereo not drawn) the “Myosin Activation (AC20)” value was “++ (++ represents myosin activation value AC20 from 2 µM - 5 µM)”. For `O=C(Nc1ccnnc1)N1CCC(C(F)(F)S(=O)(=O)c2cccc3c2COC3)CC1`, the “Myosin Activation (AC20)” value was “++ (++ represents myosin activation value AC20 from 2 µM - 5 µM)”. `Cn1nc(C(F)(F)F)cc1S(=O)(=O)[C@@](C)(F)C1CCN(C(=O)Nc2ccnc(F)c2)CC1` was tested, and the “Myosin Activation (AC20)” value was “+++ (+++ represents myosin activation value AC20 < 2 µM)”. For `Cc1ccc(NC(=O)N2CCC(C(C)(C)S(=O)(=O)c3cccc(F)c3)CC2)cn1`, the “Myosin Activation (AC20)” value was “+ (+ represents myosin activation value AC20 > 5 µM)”. For `O=C(Nc1ccnnc1)N1CCC(C(F)(F)S(=O)(=O)c2ccc(-n3cncn3)cc2)CC1`, the “Myosin Activation (AC20)” value was “++ (++ represents myosin activation value AC20 from 2 µM - 5 µM)”. `N#Cc1cc(C(F)(F)F)ccc1S(=O)(=O)C(F)(F)C1CCN(C(=O)Nc2ccnnc2)CC1` was tested, and the “Myosin Activation (AC20)” value was “+++ (+++ represents myosin activation value AC20 < 2 µM)”. With `Cc1cc(S(=O)(=O)C(F)(F)C2CCN(C(=O)Nc3ccnnc3)CC2)n(C)n1` the “Myosin Activation (AC20)” value was “++ (++ represents myosin activation value AC20 from 2 µM - 5 µM)”. In the case of `Cn1cc(S(=O)(=O)[C@@](C)(F)C2CCN(C(=O)Nc3ccnc(F)c3)CC2)c(C(F)F)n1`, the “Myosin Activation (AC20)” value is reported as “+++ (+++ represents myosin activation value AC20 < 2 µM)”. With `CC(C)(C1CCN(C(=O)Nc2ccns2)CC1)S(=O)(=O)c1cc(F)cc(F)c1` the “Myosin Activation (AC20)” value was “+++ (+++ represents myosin activation value AC20 < 2 µM)”. With `CC(F)(C1CCN(C(=O)Nc2ccnnc2)CC1)S(=O)(=O)c1cccc(F)c1.O=C(O)C(F)(F)F` (stereo not drawn) the “Myosin Activation (AC20)” value was “++ (++ represents myosin activation value AC20 from 2 µM - 5 µM)”. In the case of `O=C(Nc1ccnnc1)N1CCC(C(F)(F)S(=O)(=O)c2cccc(F)c2)CC1`, the “Myosin Activation (AC20)” value is reported as “++ (++ represents myosin activation value AC20 from 2 µM - 5 µM)”. In the case of `Cn1nccc1S(=O)(=O)C(C)(F)C1CCN(C(=O)Nc2ccc(F)nc2)CC1` (stereo not drawn), the “Myosin Activation (AC20)” value is reported as “++ (++ represents myosin activation value AC20 from 2 µM - 5 µM)”. With `Cc1ncc(NC(=O)N2CCC(C(C)(C)S(=O)(=O)c3cccc(F)c3)CC2)cn1` the “Myosin Activation (AC20)” value was “+ (+ represents myosin activation value AC20 > 5 µM)”. With `CC(C)(C1CCN(C(=O)Nc2cnns2)CC1)S(=O)(=O)c1ccc(C#N)cc1` the “Myosin Activation (AC20)” value was “+++ (+++ represents myosin activation value AC20 < 2 µM)”. With `CC(C)(C)OC(=O)n1cc(NC(=O)N2CCC(C(C)(F)S(=O)(=O)c3cccc(F)c3)CC2)cn1` (stereo not drawn) the “Myosin Activation (AC20)” value was “+ (+ represents myosin activation value AC20 > 5 µM)”. `O=C(Nc1ccncc1)N1CCC(C2(S(=O)(=O)c3ccc(OC(F)(F)F)cc3)CC2)CC1` was tested, and the “Myosin Activation (AC20)” value was “+++ (+++ represents myosin activation value AC20 < 2 µM)”. For `CC(F)(C1CCN(C(=O)Nc2ccnnc2)CC1)S(=O)(=O)c1ccccc1C#N` (stereo not drawn), the “Myosin Activation (AC20)” value was “+++ (+++ represents myosin activation value AC20 < 2 µM)”. For `CC(C)(C1CCN(C(=O)Nc2cnns2)CC1)S(=O)(=O)c1ccc(C(F)(F)F)cc1`, the “Myosin Activation (AC20)” value was “+++ (+++ represents myosin activation value AC20 < 2 µM)”. In the case of `CC(C)(C1CCN(C(=O)Nc2ccncc2)CC1)S(=O)(=O)c1ccccc1C#N`, the “Myosin Activation (AC20)” value is reported as “++ (++ represents myosin activation value AC20 from 2 µM - 5 µM)”. In the case of `CC(C)(C1CCN(C(=O)Nc2nccs2)CC1)S(=O)(=O)c1cccc(F)c1`, the “Myosin Activation (AC20)” value is reported as “+ (+ represents myosin activation value AC20 > 5 µM)”. `O=C(Nc1ccnnc1)N1CCC(F)(C2(S(=O)(=O)c3cccc(F)c3)CCC2)CC1` was tested, and the “Myosin Activation (AC20)” value was “++ (++ represents myosin activation value AC20 from 2 µM - 5 µM)”. With `Cn1cnc(S(=O)(=O)C(C)(F)C2CCN(C(=O)Nc3ccnnc3)CC2)c1` (stereo not drawn) the “Myosin Activation (AC20)” value was “+ (+ represents myosin activation value AC20 > 5 µM)”. With `CCn1nccc1S(=O)(=O)C(F)(F)C1CCN(C(=O)Nc2ccnnc2)CC1` the “Myosin Activation (AC20)” value was “+ (+ represents myosin activation value AC20 > 5 µM)”.
